Values quoted from earlier work as cited in patent US20260262651A1, “COPPER OXYCHLORIDE/ZINEB NANO-SUSPENSION DISPERSION” (priority 2023, published 2026).

Conditions: pH 6.5, 20° C.

In the case of “Dicopper chloride trihydroxide [copper oxychloride]”, the solubility in water is listed as 0.506 µg/mL.
